According to PubChem BioAssay AID2205 (University of Pittsburgh Molecular Library Screening Center, 2009):
The list shows a part of the results, in another mix than the full data. Activity calls are given as the source filed them.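 How the source made its calls: active means plate Z-score above 3 for both tubulin-high and condensed-nucleus cell shares, with cell loss under 80%, at 10 µM; inactive means the rest, inconclusive results apart.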

Assay: tubulin staining increase by stabilizing compounds – imaging, high-content imaging, primary screen (AID 2205)
Conditions: HeLa tubulin immunostaining HCS, 24 h; at 10 µM; stronger effect = higher value; share of cells brighter than vehicle mean+2SD

Compound	% tubulin-high responders
COc1ccc(OP(C)(=O)Nc2ccc(Br)cc2)cc1 (stereo unspecified)	inactive: 2.82%
COc1ccc(C2=NCC(CBr)S2)cc1 (stereo unspecified)	inactive: 2.46%
CCN(CC)CC(O)COC(=O)C(O)(c1ccccc1)C1CCCCC1 (stereo unspecified)	inactive: 3.92%
CCc1nc2c(n1)c1c(non1O)c1c2no[n+]1[O-]	inactive: 8.03%
O=[N+]([O-])c1cc([N+](=O)[O-])c(CCNc2ccccc2)c([N+](=O)[O-])c1	inactive: 2.19%
CCc1ccc(OP(C)(=O)Nc2cccnc2)cc1 (stereo unspecified)	inactive: 3.19%
CP(=O)(Oc1ccccc1)N1CCOC1=O (stereo unspecified)	inactive: 1.1%
Cc1ccc(NP(=O)(Oc2ccccc2)Oc2ccccc2)nc1	inactive: 2.9%
COc1ccccc1OP(C)(=O)Nc1c(C)n(C)n(-c2ccccc2)c1=O (stereo unspecified)	inactive: 6.42%
O=[N+]([O-])c1cccc2n[nH]nc12	inactive: 3.1%
CC(=O)N1C2C3N(C(C)=O)C1C1N(C(C)=O)C(C(N1C(C)=O)N3C(C)=O)N2C(C)=O	inactive: 3.46%
CP(=O)(Nc1ccc(Cl)cc1)Oc1ccc(F)cc1 (stereo unspecified)	inactive: 3.34%
CCN(/C(=N/P(=O)(N1CCOCC1)N1CCOCC1)N1CCOCC1)c1ccc(OC)cc1	inactive: 2.12%
CC(C)(C)c1ccc(OP(C)(=O)O)cc1	inactive: 3.25%
COc1ccccc1OP(C)(=O)Nc1ccccc1Br (stereo unspecified)	inactive: 4.18%
CC1CCN(C(=O)Oc2c(Cl)cc(Cl)c3cccnc23)CC1	inactive: 3.13%
CN(C)C(=O)OCCc1n(C)cc[n+]1C	inactive: 4.23%
CN(C)C(=O)c1c([N+](=O)[O-])cc([N+](=O)[O-])cc1[N+](=O)[O-]	inactive: 4.97%
CC(C)=N/N=C(\N)N[N+](=O)[O-]	inactive: 3.18%
CP(=O)(OC12CC3CC(CC(C3)C1)C2)OC12CC3CC(CC(C3)C1)C2	inactive: 0.944%
CCOC(=O)c1ccc(NP(C)(=O)Oc2ccc(Cl)cc2)cc1 (stereo unspecified)	inactive: 1.55%
O=[N+]([O-])c1ncn(CCn2ncnc2[N+](=O)[O-])n1	inactive: 4.63%
Cc1cc(C)cc(OP(C)(=O)Nc2cccc(C(F)(F)F)c2)c1 (stereo unspecified)	inactive: 1.43%
COc1ccc(OP(C)(=O)Nc2ccccc2Br)cc1 (stereo unspecified)	inactive: 5.82%
COc1ccccc1OP(C)(=O)Nc1ccc(C)c(C)c1 (stereo unspecified)	inactive: 3.42%
CCOP(=O)(Nc1ccccc1)OCC	inactive: 2.91%

Compound	% tubulin-high responders
Cc1cc(SC(NC(=O)c2ccc(F)cc2)C(Cl)(Cl)Cl)ncn1 (stereo unspecified)	inactive: 4.28%
Cc1nc2ccc3ccccc3c2o1.O=[N+]([O-])c1cc([N+](=O)[O-])c(O)c([N+](=O)[O-])c1	inactive: 2.44%
CP(=O)(OCCOc1ccccc1)OCCOc1ccccc1	inactive: 3.78%
CP(=O)(Nc1ccc(Cl)cc1Cl)Oc1ccccc1 (stereo unspecified)	inactive: 5.8%
CCN(N=Nc1nonc1N)c1nonc1N	inactive: 2.43%
Cc1ccc(N/C(=N/P(=O)(N2CCOCC2)N2CCOCC2)N2CCOCC2)cc1	inactive: 5.91%
NC(=O)c1cc([N+](=O)[O-])cc([N+](=O)[O-])c1N	inactive: 3.79%
Clc1ccc(Cl)c(NC2=NCC(CBr)S2)c1 (stereo unspecified)	inactive: 1.6%
CN(C)CCOC(=O)C(O)(c1ccccc1)C1CCCC1 (stereo unspecified)	inactive: 2.52%
CN1CCCC(OC(=O)C(c2ccccc2)c2ccccc2)C1 (stereo unspecified)	inactive: 3.09%
COc1ccc(OP(C)(=O)Nc2ccccn2)cc1 (stereo unspecified)	inactive: 2.19%
COc1ccccc1OP(=O)(Nc1ccc(C)cn1)Oc1ccccc1OC	inactive: 2.71%
Cc1c2non([O-])c-2c(C)[n+](=O)[n+]1[O-]	inactive: 1.88%
O=C(NC(Sc1ccncn1)C(Cl)(Cl)Cl)c1ccccc1 (stereo unspecified)	inactive: 2.28%
Oc1ccccc1CNc1ccccn1	inactive: 1.89%
CC(C)CC(=O)NC(Sc1ccc(Cl)cc1)C(Cl)(Cl)Cl (stereo unspecified)	inactive: 0.972%
O=[N+]([O-])c1cc([N+](=O)[O-])c(Nc2ccccn2)c([N+](=O)[O-])c1	inactive: 3.49%
Cc1c(NP(C)(=O)Oc2ccc(C(C)C)cc2)c(=O)n(-c2ccccc2)n1C (stereo unspecified)	inactive: 3.04%
CCc1ccc(OP(C)(=O)O)cc1	inactive: 2.3%
COc1ccccc1OP(C)(=O)Nc1ccc(C)cc1C (stereo unspecified)	inactive: 1.39%
CP(=O)(Nc1ccccn1)Oc1ccccc1 (stereo unspecified)	inactive: 2.78%
CCOc1ccc(C2=NCC(CBr)S2)cc1 (stereo unspecified)	inactive: 9.55%
O=P1(Nc2nc3ccc(Cl)cc3s2)COc2ccccc2O1 (stereo unspecified)	inactive: 4.6%
CC(C)c1ccc(OP(C)(=O)Nc2ccc(SC(F)(F)F)cc2)cc1 (stereo unspecified)	inactive: 1.66%
CC(C)(C)C(=O)NC(Sc1ccccc1)C(Cl)(Cl)Cl (stereo unspecified)	inactive: 2.2%
CP(=O)(Nc1ccccc1F)Oc1ccccc1 (stereo unspecified)	inactive: 3.04%

Compound	% tubulin-high responders
O=C(OCCN1CCN(CCOCc2ccccc2)CC1)C(O)(c1ccccc1)c1ccccc1	inactive: 2.06%
CC(=O)Nc1ccc(Oc2c([N+](=O)[O-])cc([N+](=O)[O-])cc2[N+](=O)[O-])cc1	inactive: 6.4%
CCOC(=O)NC(Sc1ccccc1)C(Cl)(Cl)Cl (stereo unspecified)	inactive: 3.44%
c1ccc(-c2nn[nH]n2)c(-c2nn[nH]n2)c1	inactive: 1.32%
CCNC(=S)/N=C(\N)N[N+](=O)[O-]	inactive: 4.31%
O=C(NC1CCS(=O)(=O)C1)NP(=S)(Oc1ccccc1)Oc1ccccc1 (stereo unspecified)	inactive: 5.54%
COc1ccc(OP(C)(=O)Nc2ccc(SC(F)(F)F)cc2)cc1 (stereo unspecified)	inactive: 2.61%
CCOC(=O)c1ccc(NP(C)(=O)Oc2ccc(F)cc2)cc1 (stereo unspecified)	inactive: 3.59%
CCN(CC)CCCOC(=O)C(O)(c1ccccc1)C1CCCCC1 (stereo unspecified)	inactive: 2.71%
CCC(=O)N1C2C3N(C(=O)CC)C1C1N(C(=O)CC)C(C(N1C(=O)CC)N3C(=O)CC)N2C(=O)CC	inactive: 2.52%
Cc1ccc(OP(=O)(Nc2ccccn2)Oc2ccc(C)cc2)cc1	inactive: 2.45%
CC(=O)NC(SC(=S)N(CC(C)C)CC(C)C)C(Cl)(Cl)Cl (stereo unspecified)	inactive: 5%
COC(=O)c1cc2c(s1)N=C(c1ccccc1)N(C)P2(=O)N1CCOCC1 (stereo unspecified)	inactive: 4.22%
O=c1c2cc([N+](=O)[O-])ccc2[nH]c2c([N+](=O)[O-])cc([N+](=O)[O-])cc12	inactive: 6.62%
CP(=O)(Nc1ccccc1)Oc1ccc(F)cc1 (stereo unspecified)	inactive: 1.72%
O=P(Nc1ccccn1)(c1ccc(Br)cc1)c1ccc(Br)cc1	inactive: 5.63%
COc1ccc(OP(C)(=O)Nc2cccc(Br)c2)cc1 (stereo unspecified)	inactive: 2.94%
COc1ccc(NP(C)(=O)Oc2ccccc2OC)cc1 (stereo unspecified)	inactive: 1.74%
CN(C)CCOC(=O)C(O)(c1ccccc1)C1CCCCC1 (stereo unspecified)	inactive: 3.59%
O=[N+]([O-])c1cc([N+](=O)[O-])c(NCC2CCS(=O)(=O)C2)c([N+](=O)[O-])c1 (stereo unspecified)	inactive: 3.12%
CC(=O)NC(SC(=S)N(C)C)C(Cl)(Cl)Cl (stereo unspecified)	inactive: 3.02%
O=C(OC1CN2CCC1CC2)c1cccc(Cl)c1 (stereo unspecified)	inactive: 6.2%
C(Cc1nn[nH]n1)Cc1nn[nH]n1	inactive: 3.32%
CC(C)C(=O)NC(Sc1ccccc1)C(Cl)(Cl)Cl (stereo unspecified)	inactive: 2.27%
O=P(Nc1nccs1)(c1ccccc1)c1ccccc1	inactive: 2%
c1nnnn1CCn1cnnn1	inactive: 1.14%

Compound	% tubulin-high responders
CCOP(C)(=S)SCC(=O)NC(C)(CC)C(=O)O (stereo unspecified)	inactive: 1.62%
CP(=O)(Nc1ccc2c(c1)OCCO2)Oc1ccccc1 (stereo unspecified)	inactive: 3.66%
Cc1ccccc1NP(C)(=O)Nc1ccccc1C	inactive: 7.41%
O=[N+]([O-])c1cc([N+](=O)[O-])c(-n2nnc3ccccc32)c([N+](=O)[O-])c1	inactive: 7.39%
O=P1(Nc2ccccn2)COc2ccccc2OC1	inactive: 5.42%
Clc1n[nH]nc1-c1nn[nH][15n]1	inactive: 4.34%
CC(C)/C=N\N=C(\N)N[N+](=O)[O-]	inactive: 4.93%
Cc1nc2ccc3ccccc3c2s1.O=[N+]([O-])c1cc([N+](=O)[O-])c(O)c([N+](=O)[O-])c1	inactive: 4.93%
CC1(CBr)Cn2c(nc3ccccc3c2=O)S1 (stereo unspecified)	inactive: 3.09%
CC1CCC(C(C)C)C(OP(=O)(Nc2ccccn2)c2ccccc2)C1 (stereo unspecified)	inactive: 3.8%
Cc1nn(-c2ccccc2)c2c1P(=O)(N1CCOCC1)N(C)C(c1ccccc1)=N2 (stereo unspecified)	inactive: 1.88%
COc1cc(C2NCCC3(OCCO3)C2(C)C)cc(OC)c1OC.O=[N+]([O-])c1cc([N+](=O)[O-])c(O)c([N+](=O)[O-])c1 (stereo unspecified)	inactive: 4.06%
CN(C)C1(CNC(=O)c2ccc(S(C)(=O)=O)cc2)CCCCC1	inactive: 2.62%
O=P1(Nc2ncccn2)COc2ccccc2OC1	inactive: 3.26%
COc1ccccc1OP(C)(=O)Nc1c(C)cccc1C (stereo unspecified)	inactive: 2.48%
CN1CCCCC1COC(=O)C1(O)c2ccccc2CCc2ccccc21 (stereo unspecified)	inactive: 2.44%
CP(=O)(Nc1ccc(SC(F)(F)F)cc1)Oc1ccccc1 (stereo unspecified)	inactive: 1.42%
CCCOc1ccc(NP(C)(=O)Oc2ccc(Cl)cc2)cc1 (stereo unspecified)	inactive: 3.06%
O=P1(Nc2ccc(Br)cn2)COc2ccccc2OC1	inactive: 3.64%
Cc1ccc(OCC(=O)OC2CN3CCC2CC3)cc1 (stereo unspecified)	inactive: 2.78%
O=P(Nc1nccs1)(c1ccccc1)c1nc2ccccc2s1 (stereo unspecified)	inactive: 4.07%
O=P(Nc1nccs1)(Oc1ccccc1)Oc1ccccc1	inactive: 3.27%
CCOP1(=S)c2c(C)nn(CCC#N)c2N=C(c2ccccc2F)N1C (stereo unspecified)	inactive: 3.69%
